Test: Pharmacokinetic analysis of blood samples (noncompartmental)
Format: in vivo, human
Conditions: sorafenib, steady state (cycle 2), non-HCC patients, tivantinib 360 mg BID and sorafenib 400 mg BID
Experimental: Blood samples were collected pre-, 1, 2, 4, 6, 8, 12, and 24 h post-dose on Days 1 and 2 of Cycles 1 and 2. The day before and on the day of PK sampling, tivantinib and sorafenib were administered at the same time. Noncompartmental PK parameters were calculated using WinNonlin (Pharsight, Mountain View, CA).

CNC(=O)c1cc(Oc2ccc(NC(=O)Nc3ccc(Cl)c(C(F)(F)F)c3)cc2)ccn1 [sorafenib]
mean Cmax: 6,757 ± 3,725 ng/mL

Source: PMC4295023 (Investigational New Drugs, 2014)
